Apparent affinities of Ab-95 variants for a coronavirus HR2 peptide

Source: Engelhart et al. 2022 (doi:10.1038/s41597-022-01779-4), MIT Lincoln Laboratory and A-Alpha Bio; data file from the FLAb repository.

The target is the same throughout: PDVDLGDISGINAS, from the HR2 region of SARS-CoV-2 spike.

Ab-95 is the parent antibody, in scFv form: VH, then a 15-residue (Gly4Ser)3 linker, then VL. The heavy chain is unchanged in all variants.
VH: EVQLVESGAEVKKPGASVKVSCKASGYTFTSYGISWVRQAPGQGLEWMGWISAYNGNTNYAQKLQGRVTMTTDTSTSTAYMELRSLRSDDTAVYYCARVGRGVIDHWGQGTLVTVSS
VL: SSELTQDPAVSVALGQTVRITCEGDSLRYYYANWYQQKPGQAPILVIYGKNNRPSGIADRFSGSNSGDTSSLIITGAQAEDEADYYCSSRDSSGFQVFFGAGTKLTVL

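The parent was found by panning a naive human phage display library on the peptide. Library AAYL52 holds single substitutions and randomly drawn double and triple substitutions in the CDRs. The scFvs were displayed on barcoded MATa yeast, the peptide on MATalpha yeast. Binding brings cells together so that they mate, and sequencing counts the barcode pairs among the diploids. A regression on co-assayed BCL2-family reference pairs converts the normalised counts of each replicate to an apparent Kd. There are three technical replicates.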

The parent's light chain CDRs are EGDSLRYYYAN, GKNNRPS, SSRDSSGFQVF; each variant's own CDRs replace them letter for letter. All variants listed here change L27 of the VL, counted from its first residue. The read-out is the apparent dissociation constant on a log10 scale (nM): the lower, the stronger. A mean of the replicates is given; it leaves out those without a signal. An entry "no signal" has no value in the source: the pair was not observed among the diploids in any replicate. This suggests poor binding but is not conclusive. In this assay the parent's reference entry averaged 2.31; its copy inside this library read 2.25. Three control strains display no target. For library AAYL52, 28% of the pairings with them gave a signal, with a median of 3.91 and one signal in twenty below 2.90, so weak values seen in few replicates may be background.

* EGDSIRYYYAN | GKNNKPL | SSRDSSGFQVF: 2.77 (3 of 3 replicates)
* EGDSTRYYYAN | GKNNRTS | SSLDSSGFQVF: 3.44 (1 of 3 replicates)
* EGDSDRYYYAN | GKNNRSS | SSRDSSGFVVF: 4.53 (3 of 3 replicates)
* EGDSPRYYYAR | GKNNRPS | SSRDSSGFQHF: 4.24 (1 of 3 replicates)
* SGDSKRYYYAN | GKNNRPS | SSRDSIGFQVF: 4.44 (3 of 3 replicates)
* EGDSQRYYTAN | GKNNRPS | SSRDSSGFQVF: 2.85 (3 of 3 replicates)
* EGDSRRYYYAL | GKDNRPS | SSRDSSGFQVF: 4.23 (2 of 3 replicates)
* EGDSTDYYYAN | GKNNRPS | SQRDSSGFQVF: no signal (0 of 3 replicates)
* EGDSGRYYYAN | GKMNRPS | SSRDSSGFQVF: 2.80 (1 of 3 replicates)
* EGDSGRYYYAN | GKNNRPR | SSRDSSGFQLF: 3.36 (3 of 3 replicates)
* EGDSVRYYYAN | GKNNRPS | SSRDSAGFQVF: 2.93 (2 of 3 replicates)
* EGDSTRYYYAN | GKNNFPS | SSRDSSGFQVF: 3.84 (1 of 3 replicates)
* EGDSHRYYYHN | GKNNRPW | SSRDSSGFQVF: 4.25 (3 of 3 replicates)
* EGDSHRYYYAN | GKTNRPS | SSRDSSGFVVF: 3.46 (1 of 3 replicates)
* EGDSIRYYYAN | GVNNRPS | SSRDASGFQVF: 3.69 (2 of 3 replicates)
* EGDSFRYYYNN | GKNNRPS | SSRCSSGFQVF: 3.37 (2 of 3 replicates)
* EGDDDRYYYAN | GKNNGPS | SSRDSSGFQVF: no signal (0 of 3 replicates)
* EGDSERYYYAN | GKNNRMS | SSRDSSYFQVF: no signal (0 of 3 replicates)
* EGDSVRYDYAN | GKNNRPS | SSTDSSGFQVF: 4.24 (1 of 3 replicates)
* EGDACRYYYAN | GINNRPS | SSRDSSGFQVF: 5.54 (1 of 3 replicates)
* EGDYNRYYYAN | EKNNRPS | SSRDSSGFQVF: 4.10 (1 of 3 replicates)
* EGVSPRYYYAN | GKNNRPS | SSRDLSGFQVF: 3.05 (3 of 3 replicates)
* EGDSERYYYAN | GKNNRPS | SSRVSSGFQVF: 3.20 (3 of 3 replicates)
* EGDSSRMYYAN | GKNNRPS | GSRDSSGFQVF: 4.82 (2 of 3 replicates)
* EGDSPRYYYAN | GKNNRPS | SSRDISGFRVF: 3.79 (3 of 3 replicates)
* EGDSRRYYYAY | GKNNRPS | SSRDSSGFQVF: 3.46 (2 of 3 replicates)
* EGDSQRYYYAN | GKNNWPS | SSRDSSGFQVA: 4.21 (2 of 3 replicates)
* EGDSTRYYYAN | HKKNRPS | SSRDSSGFQVF: 3.58 (3 of 3 replicates)
* EVDSPRYYYAN | GKNNRPS | SSRDSGGFQVF: 4.12 (2 of 3 replicates)
* EGDSWNYYYAN | GKNNRPS | SSRISSGFQVF: 3.99 (1 of 3 replicates)
* EGDSVRYYYAN | GMNNRPS | SQRDSSGFQVF: 3.71 (1 of 3 replicates)
* EGDSKRYYRAN | GKNNRPS | SSRDSSGFQYF: 3.77 (2 of 3 replicates)
* EGDSCRYYYAN | GKNNQPS | RSRDSSGFQVF: no signal (0 of 3 replicates)
* EGDSCRYYYEN | GKNNRPS | SSRDSSGQQVF: 4.89 (2 of 3 replicates)
* EGDSSRYYYAN | GKNNRPS | SSRDSSGFQVF: 2.82 (3 of 3 replicates)
* EGDWMRYYYAN | GKNNRPS | SSRDSFGFQVF: 3.37 (1 of 3 replicates)
* ENDSTRYYYAN | GKNNRPS | SSRDSSGFQDF: 4.41 (2 of 3 replicates)
* EGDSNRYYQAN | RKNNRPS | SSRDSSGFQVF: no signal (0 of 3 replicates)
* EHDSQRYYYAN | GKNNRPS | LSRDSSGFQVF: 4.50 (1 of 3 replicates)
* EGDSDRYYYAN | GKNNRPS | SSRDWPGFQVF: no signal (0 of 3 replicates)
* EGDSERYYYAN | GKNNRPG | SSRDSSGFQRF: 3.75 (2 of 3 replicates)

For reference, 5 entries of the list once more:

CDR-L1,CDR-L2,CDR-L3,mean log10 Kd (nM),detected
EGDSFRYYYNN,GKNNRPS,SSRCSSGFQVF,3.37,2/3
EGDSIRYYYAN,GVNNRPS,SSRDASGFQVF,3.69,2/3
EGDSVRYYYAN,GMNNRPS,SQRDSSGFQVF,3.71,1/3
EGDSHRYYYAN,GKTNRPS,SSRDSSGFVVF,3.46,1/3
EGDSTRYYYAN,GKNNFPS,SSRDSSGFQVF,3.84,1/3